# Measured values published in patent US20050282734A1 (priority 1998, published 2005).
# Experiments:
# [1] = cited from earlier work
# [2] = Stability (solubility) of HSA in aqueous ethanol solution (precipitate/turbidity); type: physicochemical; conditions: HSA 100 mg/ml in saline
# Experimental: At high concentrations, ethanol causes the denaturation of most proteins. Without wishing to be bound by any particular theory, inventors thought that ethanol can reduce water availability to below the level at which proteins remain functionally and structurally stable. […] This experiment had one objective: to determine the maximum working ethanol concentration that had minimal effect on the stability of HSA in aqueous ethanol solutions.
# Reagent Preparation • 1. A 10 ml stock solution of HSA (200 mg/ml aqueous solution) was prepared in a small vial and designated the 200 HSA stock solution. • 2. Three 20-ml saline stock solutions of 1×, 2× and 4× the normal NaCl concentration in physiological saline were also prepared in small bottles (or flasks) and designated the 1× Saline, 2× Saline and 4× Saline stock solutions, respectively.
# 1. Three sets of conical tubes were labeled as 1×, 2× and 4× corresponding to the 3 different saline stock solutions, respectively. • 2. 500 μL of 200 HSA stock was aliquoted into all 3 sets of tubes, and was preincubated at room temperature. • 3. Different amounts of appropriate saline stock solution were added to each set of tubes according to the Table 2. • 4. Ethanol was added to each set of 5 tubes to give final concentrations of 5, 10, 15, 20 and 25%, and none to the control tube, according to the Table 2. • 5. The tubes were incubated at room temperatures and observed at 0 h, 1 h and 3 h for precipitate formation. The results were recorded by + or − turbidity formation.
substance,measurement,setting,value
"HSA: human serum albumin, commercial 20% solution; carrier excipient",pI,[1]; defatted HSA,5.3
same,pI,[1]; non-defatted HSA,4.7
same,turbidity of HSA solutions containing 30% ethanol,[2],some increase in turbidity
same,ethanol concentration at which HSA solutions turned cloudy instantly,[2]; room temperature,≥ 35%
same,ethanol concentration at which clear HSA solutions were obtained,[2]; room temperature,up to 25 % (v/v)

# Read-outs that look alike come from different tables or passages of the source.
